# Reference: patent US20250268876A1, “TREATMENT OF HIDRADENITIS SUPPURATIVA WITH ORISMILAST” (UNION THERAPEUTICS A/S, priority 2021, published 2025)
# Sequences of proteins named here, by UniProt entry; tags and fusion partners are left off. Residues count along the entry.
# UniProt Q08493, 107-712: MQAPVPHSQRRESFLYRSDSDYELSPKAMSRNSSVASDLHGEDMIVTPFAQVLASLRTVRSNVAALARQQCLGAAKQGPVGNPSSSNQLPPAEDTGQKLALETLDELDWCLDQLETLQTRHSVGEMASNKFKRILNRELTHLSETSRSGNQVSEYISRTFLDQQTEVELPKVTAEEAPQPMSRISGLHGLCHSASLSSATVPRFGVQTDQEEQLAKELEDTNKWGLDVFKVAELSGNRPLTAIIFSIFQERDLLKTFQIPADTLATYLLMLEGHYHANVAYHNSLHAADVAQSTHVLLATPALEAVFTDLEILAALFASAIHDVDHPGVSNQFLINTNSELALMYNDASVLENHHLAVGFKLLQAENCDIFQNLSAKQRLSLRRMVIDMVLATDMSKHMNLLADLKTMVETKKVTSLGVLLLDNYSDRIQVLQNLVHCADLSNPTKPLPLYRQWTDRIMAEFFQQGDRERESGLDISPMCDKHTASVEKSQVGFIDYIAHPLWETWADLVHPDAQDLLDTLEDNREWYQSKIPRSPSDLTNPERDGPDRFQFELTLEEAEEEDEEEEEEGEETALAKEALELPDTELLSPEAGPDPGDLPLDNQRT
# UniProt P27815, 1-647 isoform P27815-4: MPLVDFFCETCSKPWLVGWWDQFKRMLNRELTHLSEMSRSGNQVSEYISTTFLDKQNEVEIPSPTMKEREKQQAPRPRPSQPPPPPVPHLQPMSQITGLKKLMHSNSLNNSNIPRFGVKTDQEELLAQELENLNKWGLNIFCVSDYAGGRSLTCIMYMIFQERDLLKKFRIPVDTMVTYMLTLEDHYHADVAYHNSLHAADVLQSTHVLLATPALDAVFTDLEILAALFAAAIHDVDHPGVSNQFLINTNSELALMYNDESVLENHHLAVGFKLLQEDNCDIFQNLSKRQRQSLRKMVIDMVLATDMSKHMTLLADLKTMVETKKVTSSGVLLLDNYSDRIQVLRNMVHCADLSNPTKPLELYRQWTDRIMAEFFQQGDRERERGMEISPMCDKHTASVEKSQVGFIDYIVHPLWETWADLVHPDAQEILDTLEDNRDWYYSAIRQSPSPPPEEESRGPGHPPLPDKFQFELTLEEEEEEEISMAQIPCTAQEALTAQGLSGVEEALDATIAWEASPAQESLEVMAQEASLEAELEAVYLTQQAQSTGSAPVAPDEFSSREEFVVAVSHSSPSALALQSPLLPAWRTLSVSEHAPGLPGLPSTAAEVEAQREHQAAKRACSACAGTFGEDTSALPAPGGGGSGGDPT
# UniProt P27815, 1-825 isoform P27815-6: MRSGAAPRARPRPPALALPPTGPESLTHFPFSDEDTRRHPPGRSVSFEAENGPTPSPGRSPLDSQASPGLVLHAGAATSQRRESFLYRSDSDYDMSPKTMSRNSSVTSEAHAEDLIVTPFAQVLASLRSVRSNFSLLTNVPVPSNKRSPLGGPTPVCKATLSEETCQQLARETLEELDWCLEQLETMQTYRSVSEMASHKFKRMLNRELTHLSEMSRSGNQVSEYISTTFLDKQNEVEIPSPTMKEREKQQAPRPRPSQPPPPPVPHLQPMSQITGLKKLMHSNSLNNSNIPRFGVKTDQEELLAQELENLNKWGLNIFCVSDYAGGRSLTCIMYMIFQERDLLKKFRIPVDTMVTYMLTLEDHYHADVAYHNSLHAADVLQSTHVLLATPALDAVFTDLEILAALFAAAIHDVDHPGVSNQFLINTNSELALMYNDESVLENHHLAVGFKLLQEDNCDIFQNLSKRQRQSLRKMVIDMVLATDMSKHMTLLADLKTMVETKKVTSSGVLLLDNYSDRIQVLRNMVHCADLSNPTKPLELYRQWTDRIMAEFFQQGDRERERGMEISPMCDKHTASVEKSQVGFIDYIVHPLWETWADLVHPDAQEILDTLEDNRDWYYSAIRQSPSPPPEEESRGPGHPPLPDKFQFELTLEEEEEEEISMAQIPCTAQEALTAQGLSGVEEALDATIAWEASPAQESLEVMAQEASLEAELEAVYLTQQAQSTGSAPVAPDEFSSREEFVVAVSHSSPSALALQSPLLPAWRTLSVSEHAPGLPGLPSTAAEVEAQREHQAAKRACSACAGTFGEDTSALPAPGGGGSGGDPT
# Key:
# PDE4C2 = PDE4C2 (Homo sapiens, UniProt Q08493); assay type: biochemical
# Experimental: Enzyme Preparations: Partially purified human recombinant phosphodiesterases (PDEs) were obtained by cloning cDNA and expressing in S. frugiperda insect cells using a baculovirus expression system. Cells are harvested from culture by centrifuging at 400×g for 5 minutes. Cell pellet is resuspended in 20 ml of RIPA Buffer (150 mM NaCl, 10 mM Tris, 0.1% NP-40, pH8.3), 4 ml/200 ml of culture, plus protease inhibitors (100 μl/10 ml) and incubated on ice for 10-20 minutes then spun at 3500×g for 10 minutes at 4° C. Supernatant is kept and the pellet thrown away.
# Tritium-labelled cyclic AMP is hydrolysed to 5′-AMP o by PDE. The 5′-AMP is then further hydrolysed to adenosine by nucleotidase in snake venom. An anion-exchange resin binds all charged nucleotides and leaves [^3H]adenosine as the only labelled compound to be counted by liquid scintillation.
# 50 μl of diluted PDE enzyme was incubated with 50 μl of [^3H]-cAMP (specific activity 25 Ci/mmol) and 11 μl of 50% DMSO (or compound dilution) for 20 minutes at 30° C. […] 50 μl of supernatant was removed and added to 200 μl of MicroScint-20 in white plates (Greiner 96well Optiplate) and shaken for 30 minutes before reading on Perkin Elmer TopCount Scintillation Counter. IC50 values were calculated using GraphPad Prism software (version 8).
# PDE4A1 = PDE4A1 (Homo sapiens, UniProt P27815); assay: biochemical
# PDE4A4 = PDE4A4 (Homo sapiens, UniProt P27815); assay: biochemical
# PDE4A10 = PDE4A10 (Homo sapiens, UniProt P27815); assay: biochemical
compound,measurement,setting,value
CCOc1cc([C@@H](CS(C)(=O)=O)N2C(=O)c3cccc(NC(C)=O)c3C2=O)ccc1OC [Apremilast],IC50,PDE4C2,244 nM
same,IC50,PDE4A1,78 nM
same,IC50,PDE4A4,42 nM
same,IC50,PDE4A10,140 nM
